The results in this text go back to publication PMC7970304, “The Effects of Apelin and Elabela Ligands on Apelin Receptor Distinct Signaling Profiles” (Frontiers in Pharmacology, 2021).

Protein sequences, listed by entry. Tags and fused reporters are not part of them. Lines headed by an entry give the natural chain unless they say otherwise; changes in a name come on top.
UniProt P35414: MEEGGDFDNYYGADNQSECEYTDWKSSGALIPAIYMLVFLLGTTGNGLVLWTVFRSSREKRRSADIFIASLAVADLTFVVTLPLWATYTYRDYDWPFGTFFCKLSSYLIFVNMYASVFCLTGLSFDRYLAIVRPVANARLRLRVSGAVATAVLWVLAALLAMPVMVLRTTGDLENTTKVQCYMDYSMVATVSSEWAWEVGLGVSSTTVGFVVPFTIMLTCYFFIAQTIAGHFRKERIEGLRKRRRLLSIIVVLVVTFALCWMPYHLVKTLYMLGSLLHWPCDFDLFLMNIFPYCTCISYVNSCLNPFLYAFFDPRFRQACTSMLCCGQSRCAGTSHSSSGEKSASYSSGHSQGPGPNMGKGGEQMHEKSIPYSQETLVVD

One test concerns the target APJ-Venus (UniProt P35414).
For test [1], the target named is APJ-Renilla luciferase (Rluc) (UniProt P35414).

In the test with APJ-Venus, “Elabela-21 (from UniProt P0DMC3 23-54) (peptide)” yielded a LogEC50 of the ligand-induced interaction of APJ with β-arrestin 1 (BRET between APJ-Venus and β-arrestin 1-Rluc, HEK293 cells) of -7.18; a LogEC50 of the ligand-induced interaction of APJ with β-arrestin 2 (BRET between APJ-Venus and β-arrestin2-Rluc, HEK293 cells) of -7.17. In test [1], this substance gave a LogEC50 of the ligand-induced recruitment of GRK2 to APJ (BRET between APJ-Rluc and GRK2-GFP2, HEK293 cells) of -7.47; a LogEC50 of the ligand-induced recruitment of GRK5 to APJ (BRET between APJ-Rluc and GRK5-GFP2, HEK293 cells) of -7.23.
